Test system: UDP-glucuronosyltransferase (Mus musculus)
Experiment: in vitro
Conditions: human, liver microsomes

- half-life: 5 min
Structure (SMILES): N#Cc1c(=O)[nH]c(OCc2ccccc2Cl)c2cc(F)ccc12

— ChEMBL document CHEMBL1909577, “Discovery of 3-hydroxy-4-cyano-isoquinolines as novel, potent, and selective inhibitors of human 11β-hydroxydehydrogenase 1 (11β-HSD1)” (Bioorg Med Chem Lett, 2011)
